According to patent US20220338463A1, “METHOD OF PRODUCING LYOPHILIZED CELLS” (LONZA LTD, priority 2019, published 2022):

Test system: SK-N-AS cells
Assay: ALAMARBLUE assay of plated cells after freeze-thaw of suspended cells
Format: cell-based, Human
Conditions: 2% (v/v) NEAA, 4.5 g/L glucose, 2.5% HSA; FIG. 12
Experimental: The cells were plated on a 96-well plate in a density of 2.25×10^5 cells/cm^2 and diluted with medium to the final volume of 200 μL inside the well. The cells were then incubated overnight at 37° C. and 5% CO2 so they attached to the wells. Cells were stained with 10 μL ALAMARBLUE® reagent per 100 μL of medium in the well and incubated for 4 h. Same procedure was applied for a blank, where 200 μL of medium was pipetted into the well. After that, 100 μL of solution above the cells was pipetted into a black non-transparent 96-well plate and fluorescence was measured with SPECTRAMAX® plate reader (excitation λ=550 nm, emission λ=590 nm).
Formulations were prepared in 50 mL Falcon tubes and subsequently sterile filtered under the bench with 0.22 μm syringe filter and a syringe. […]
Subsequently, the vials were taken from the −80° C. freezer and rapidly thawed in the water bath at 37° C. Immediately after thawing, 0.1 mL of cell suspension was 2× diluted with medium and counted with NucleoCounter to obtain cell viability [%] and concentration inside the vial. […]
Calculated volume was diluted inside of the well with cell growth medium, so that the final volume was 0.2 mL. […]
ALAMARBLUE® on the other hand, contains a reagent called resazurin. […] The intensity of fluorescence is proportional to the amount of cells that are able to metabolize resazurin and are thus considered viable.

## HSA: human serum albumin, cell medium supplement
  cell survival during freeze-thaw, supplement added to 1M propylene glycol vs 1M propylene glycol: no major benefit on cell survival
